This is an account of results in patent US20250295776A1, “CLEAVAGE RESISTANT CD16 CONSTRUCTS AND USES THEREOF” (Celularity Inc., priority 2022, published 2025).

The test deals with NCI-N87 gastric cancer cell line. Briefly: In vivo efficacy in subcutaneous NCI-N87 gastric tumor model. Further details: species or system NSG-Tg-hIL15 mice. As to conditions: CYNK-101 10×10^6 cells IV Days 7, 14, 21 or Trastuzumab 10 mg/kg IP Day 7. The method, then:
The anti-tumor activity and safety of CYNK-101 in combination with Trastuzumab were evaluated in a subcutaneous gastric tumor model using the NSG mice with transgenic expression of human IL-15 (NSG-Tg-hIL15).
A total of eighty female NSG-Tg-hIL15 mice were preconditioned with busulfan (30 mg/kg) to deplete myeloid cells on Day −3. […] One week later (Day 7), seventy-three mice with palpable tumors were randomized to the following four groups: Vehicle control (n=19), Trastuzumab (n=17), CYNK-101 (n=19), CYNK-101+Trastuzumab (n=18). Trastuzumab (10 mg/kg) was administered intraperitonially (IP) once on Day 7, and CYNK-101 at the dose of 10×10^6 cells/mouse was administered intravenously (IV) three times on Days 7, 14 and 21.

As to Trastuzumab: anti-HER2 antibody, the “tumor growth, single agent vs vehicle control” value is reported as “significantly inhibited tumor growth”.
